# Measured values: PubChem BioAssay AID1117353 (Cheminformatics & Chemogenomics Research Group (CCRG), …, 2015)
# Protein sequences, listed by entry. Tags and fused reporters are not part of them.
# UniProt P35968, whole entry, looked up: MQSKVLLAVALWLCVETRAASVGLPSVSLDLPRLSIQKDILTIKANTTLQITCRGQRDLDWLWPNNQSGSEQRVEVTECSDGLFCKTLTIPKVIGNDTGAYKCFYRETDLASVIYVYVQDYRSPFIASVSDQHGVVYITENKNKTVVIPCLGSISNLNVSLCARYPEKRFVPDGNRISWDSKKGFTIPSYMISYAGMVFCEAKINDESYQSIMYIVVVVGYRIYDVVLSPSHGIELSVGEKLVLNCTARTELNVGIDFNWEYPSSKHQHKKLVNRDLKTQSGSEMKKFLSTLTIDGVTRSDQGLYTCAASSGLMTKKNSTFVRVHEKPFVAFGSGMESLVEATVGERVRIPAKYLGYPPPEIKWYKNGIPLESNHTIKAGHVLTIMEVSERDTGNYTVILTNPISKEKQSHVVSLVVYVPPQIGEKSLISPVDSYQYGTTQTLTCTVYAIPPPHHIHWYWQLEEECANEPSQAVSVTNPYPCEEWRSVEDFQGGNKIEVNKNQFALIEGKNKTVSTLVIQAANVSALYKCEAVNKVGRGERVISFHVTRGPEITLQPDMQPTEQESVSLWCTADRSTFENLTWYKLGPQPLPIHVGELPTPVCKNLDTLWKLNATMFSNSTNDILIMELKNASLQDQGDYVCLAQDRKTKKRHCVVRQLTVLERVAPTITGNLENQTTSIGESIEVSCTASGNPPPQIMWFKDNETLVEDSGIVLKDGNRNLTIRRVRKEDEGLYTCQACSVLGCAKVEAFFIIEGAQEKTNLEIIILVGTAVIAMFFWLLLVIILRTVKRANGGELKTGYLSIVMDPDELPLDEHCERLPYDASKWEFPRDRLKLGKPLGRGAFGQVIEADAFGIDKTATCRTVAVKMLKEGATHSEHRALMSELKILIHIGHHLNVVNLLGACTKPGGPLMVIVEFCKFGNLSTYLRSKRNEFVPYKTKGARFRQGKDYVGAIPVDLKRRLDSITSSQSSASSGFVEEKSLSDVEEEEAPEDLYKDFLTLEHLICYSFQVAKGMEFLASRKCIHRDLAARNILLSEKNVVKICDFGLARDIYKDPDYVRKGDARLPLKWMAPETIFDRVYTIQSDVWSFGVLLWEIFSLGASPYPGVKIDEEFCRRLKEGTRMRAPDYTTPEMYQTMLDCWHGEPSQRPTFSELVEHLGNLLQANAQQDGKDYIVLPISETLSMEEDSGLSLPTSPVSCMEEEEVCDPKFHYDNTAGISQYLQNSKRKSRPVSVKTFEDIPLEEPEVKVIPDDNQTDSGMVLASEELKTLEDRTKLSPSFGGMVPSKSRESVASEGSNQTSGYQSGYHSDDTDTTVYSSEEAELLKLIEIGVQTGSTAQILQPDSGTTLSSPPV
# This is a selection; strong and weak results do not stand in their true shares. Active and inactive are the calls of the source. Cut-off read from the data, not from the text of the source: active = inhibition above about 50%; inactive = the rest.
# Target: Vascular endothelial growth factor receptor 2 (Homo sapiens) (UniProt P35968)
# Experiment: VEGFR2 inhibitors, primary assay, biochemical, Homo sapiens, LANCE Ultra TR-FRET, NPC library (AID 1117353)
# Details: LANCE Ultra TR-FRET kinase assay; at 20 µM (top of the series)
smiles,measurement,value
CN(CCCl)CCCl,inhibition,inactive: 18.2%
